Source: patent US11236069B2, “KIF18A inhibitors” (AMGEN INC., priority 2018, dated 2022)

Protein sequences, listed by entry. Tags and fused reporters are not part of them. Residues count along the entry.
UniProt Q8NI77, 1-467: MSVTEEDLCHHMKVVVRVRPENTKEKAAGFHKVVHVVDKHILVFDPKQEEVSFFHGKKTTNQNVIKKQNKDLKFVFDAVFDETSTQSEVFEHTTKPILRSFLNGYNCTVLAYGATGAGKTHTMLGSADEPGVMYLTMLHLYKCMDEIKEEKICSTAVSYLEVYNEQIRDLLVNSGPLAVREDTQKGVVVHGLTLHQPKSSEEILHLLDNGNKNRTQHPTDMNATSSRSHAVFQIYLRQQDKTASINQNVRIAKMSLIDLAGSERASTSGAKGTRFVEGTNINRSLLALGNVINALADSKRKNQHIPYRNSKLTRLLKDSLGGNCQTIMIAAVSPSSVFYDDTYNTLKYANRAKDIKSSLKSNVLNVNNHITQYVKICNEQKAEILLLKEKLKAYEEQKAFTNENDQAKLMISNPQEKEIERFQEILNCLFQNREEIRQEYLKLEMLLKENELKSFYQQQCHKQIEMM

Biological target: Recombinant human KIF18A (1-467 His-tagged) protein (Homo sapiens (Human), UniProt Q8NI77)
Assay: KIF18A Enzyme Assay: microtubule-stimulated ATPase activity (ADP-Glo)
Conditions: read-out: KIF18A ATPase IC50; 30 nM KIF18A, 30 μg/mL pig microtubules, ATP at Km 75 μM, ADP-Glo luminescence

IC50 [µM]	Structure (SMILES)
0.076	Cc1cc(NC(=O)c2ccc(S(=O)(=O)CCO)cc2N2CCC3(CC2)CC3)nc(N2CCC(F)(F)CC2)n1 [Example 12, N-(2-(4,4-difluoropiperidin-1-yl)-6-methylpyrimidin-4-yl)-4-((2-hydroxyethyl)sulfonyl)-2-(6-azaspiro[2.5]octan-6-yl)benzamide]
0.122	Cc1cc(NC(=O)c2ccc(S(=O)(=O)C(C)(C)CO)cc2N2CCC3(CC2)CC3)nc(N2CCC(F)(F)CC2)n1 [Example 14, N-(2-(4,4-Difluoropiperidin-1-yl)-6-methylpyrimidin-4-yl)-4-((1-hydroxy-2-methylpropan-2-yl)sulfonyl)-2-(6-azaspiro[2.5]octan-6-yl)benzamide]
0.119	Cc1cc(NC(=O)c2ccc(C(N)=O)cc2N2CCC3(CC2)CC3)nc(N2CCC(F)(F)CC2)n1 [Example 20]
